# Assay results reported in patent US5648233A, “Modified tumor cytotoxic factor (TCF) and DNA encoding such” (Snow Brand Milk Products Co., Ltd., priority 1992, dated 1997).
# Legend:
# Meth A sarcoma = assay: Tumor cytotoxic activity (MTT); assay type: cell-based; conditions: Meth A cells, 5 days, serial dilution from 50 ng/mL, FIG. 9
# Procedure: Tumor cytotoxic activities of TCF, TCF-3 and TCF-13 were measured. Meth A sarcoma was used as a target cell line. The cells were suspended in RPMI medium (GIBCO Co.) supplemented with 10% FCS at a final cell density of 2×10^4 cells per mL. Fifty microliters of the cell suspension was inoculated into each well in 96-well flat-bottomed microtiter plates. The purified TCF, TCF-3 and TCF-13 were serially diluted with RPMI medium from the concentration of 50 ng/mL, and the 50 μL of each diluted sample was added to each test well. After incubation at 37° C. for 5 days, MTT was added at a final concentration of 0.5 mg/ml and the plates were incubated at 37° C. Four hours later, 100 μL of the solution containing 10% SDS and […] was added to each well and left overnight at room temperature. Next day, the absorbance at 620 nm was measured as a parameter of the viable cell numbers in each well.
# [1] = rat, in vivo
molecule,measurement,setting,value
TCF-13: modified TCF which lacks oligosaccharide chains 1 and 3 (protein) MWVTKLLPALLLQHVLLHLLLLPIAIPYAEGQRKRRNTIHEFKKSAKTTLIKIDPALKIKTKKVNTADQCANRCTRNKGLPFTCKAFVFDKARKQCLWFPFNSMSSGVKKEFGHEFDLYENKDYIRNCIIGKGRSYKGTVSITKSGIKCQPWSSMIPHEHSYRGKDLQENYCRNPRGEEGGPWCFTSNPEVRYEVCDIPQCSEVECMTCNGESYRGLMDHTESGKICQRWDHQTPHRHKFLPERYPDKGFDDNYCRNPDGQPRPWCYTLDPHTRWEYCAIKTCADNTMQDTDVPLETTECIQGQGEGYRGTVNTIWNGIPCQRWDSQYPHEHDMTPENFKCKDLRENYCRNPDGSESPWCFTTDPNIRVGYCSQIPNCDMSHGQDCYRGNGKNYMGNLSQTRSGLTCSMWDKNMEDLHRHIFWEPDASKLNENYCRNPDDDAHGPWCYTGNPLIPWDYCPISRCEGDTTPTIVNLDHPVISCAKTKQLRVVNGIPTRTNIGWMVSLRYRNKHICGGSLIKESWVLTARQCFPSRDLKDYEAWLGIHDVHGRGDEKCKQVLNVAQLVYGPEGSDLVLMKLARPAVLDDFVSTIDLPNYGCTIPEKTSCSVYGWGYTGLINYDGLLRVAHLYIMGNEKCSQHHRGKVTLNESEICAGAEKIGSGPCEGDYGGPLVCEQHKMRMVLGVIVPGRGCAIPNRPGIFVRVAYYAKWIHKIILTYKVPQS,tumor cytotoxic activity (in words),Meth A sarcoma,cytotoxic activities to Meth A cells in a dose-dependent manner
same,bioavailabilities (in words),[1],larger bioavailabilities
same,AUC (in words),[1]; iv,larger AUC
same,CLtotal (total clearance),[1]; iv,6.0 ± 0.2 mL/min/kg
same,metabolic fates (in words),[1]; iv,slower metabolic fates
same,plasma half-lives (in words),[1]; iv,prolonged
same,t1/2 α (plasma half-life of rapid phase),[1]; iv,3.8 ± 0.5 min
same,t1/2 β (plasma half-life of slower phase),[1]; iv,24.9 ± 3.1 min
same,total clearance (in words),[1]; iv,decreased
